Assay results: PMC6153549 (Investigational New Drugs, 2018)

Settings: rats, lapatinib 100 mg/kg p.o. alone (IIL), plasma, M ± SD

t0.5: 9.22 ± 3.93 (42.6) h
Structure (SMILES): CS(=O)(=O)CCNCc1ccc(-c2ccc3ncnc(Nc4ccc(OCc5cccc(F)c5)c(Cl)c4)c3c2)o1 [lapatinib, Lapatinib]
